Measurements from patent US5258185A, “Highly active, rapidly absorbable formulations of glibenclamide, processes for the production thereof and their use” (priority 1989, dated 1993).

Test: solubility of glibenclamide
Assay type: physicochemical
Settings: in contrast to carrier substances of DE-OS 23 55 743, below 50° C.
Protocol: Glibenclamide (INN) is a sulfonyl urea derivative having the chemical IUPAC designation: N-4-(5-chloro-[2-methoxy-benzamido)ethyl]phenylisulfonyl-N'-cyclohexyl urea. […] Together with alkalis, it forms salts which, have very limited solubility in water as compared to tolbutamide, which is also a blood sugar reducing substance. The molecular weight is 494.02, and the melting point is 172° to 174° C. (cf. R. Groning: Arzneistoffprofile und Bioverfugbarkeitsdaten von Fertigarzneimitteln, Arzneistoffmonographie Glibenclamid, Deutscher Apothekerverlag, Stuttgart, pages 1 to 7, 1987; Euglucon® N, Semi-Euglucon® N: Pharmakologische und klinische Daten, Praparateinformation Boehringer Mannheim GmbH und Hoechst AG, Frankfurt/Main, 1984).
It follows from these investigations that due to its minor water-solubilityand dissolution rate that glibenclamide is counted among the biopharmaceutically problematic pharmaceutical preparations.
DE-OS 23 48 334 describes a rapidly absorbable formulation of glibenclamide and a process for the production thereof. Glibenclamide was processed into rapidly absorbable formulations by means of pulverization to form as large a surface finest as possible or by finest precipitation, from organic solvents in dispersing agents. Extremely fine crystallizates having a surface size of 3 to 10 m^2 were obtained by the methods defined in DE-OS 23 48 334. […]

COc1ccc(Cl)cc1C(=O)NCCc1ccc(S(=O)(=O)NC(=O)NC2CCCCC2)cc1 [Glibenclamide, N-4-(5-chloro-[2-methoxy-benzamido)ethyl]phenylisulfonyl-N'-cyclohexyl urea]
dissolution of glibenclamide by low-molecular polyethylene glycols: better
